Tested on: Cys120Val AmGSTF1
Conditions: 100 µM, 60 min at 20 °C, diluted 1:100, activity towards CDNB

SMILES: NC(CCC(=O)NC(CSc1ccc([N+](=O)[O-])c2nonc12)C(=O)NCC(=O)O)C(=O)O (centres unmarked) [NBD-SG]
- Inhibition vs. DMSO control: 13%
- Mean specific activity (mean ± SD, n = 3): 22.4 ± 1.6 nmol s-1 mg-1 protein

Source: paper PMC8564858, “Flavonoid-based inhibitors of the Phi-class glutathione transferase from black-grass to combat multiple herbicide resistance” (Organic & Biomolecular Chemistry, 2021)
